Columns and labels:
[1] = target: Hsp90α (Homo sapiens (Human), UniProt P07900); experiment: Fluorescence polarization assay (FITC-GDA tracer displacement); assay type: binding; settings: read-out: Kd Hsp90α
[2] = target: Hsp90β (Homo sapiens (Human), UniProt P08238); experiment: as above; assay type: binding; settings: read-out: Kd Hsp90β

Protein sequences, listed by entry. Tags and fused reporters are not part of them.
UniProt P08238, whole entry: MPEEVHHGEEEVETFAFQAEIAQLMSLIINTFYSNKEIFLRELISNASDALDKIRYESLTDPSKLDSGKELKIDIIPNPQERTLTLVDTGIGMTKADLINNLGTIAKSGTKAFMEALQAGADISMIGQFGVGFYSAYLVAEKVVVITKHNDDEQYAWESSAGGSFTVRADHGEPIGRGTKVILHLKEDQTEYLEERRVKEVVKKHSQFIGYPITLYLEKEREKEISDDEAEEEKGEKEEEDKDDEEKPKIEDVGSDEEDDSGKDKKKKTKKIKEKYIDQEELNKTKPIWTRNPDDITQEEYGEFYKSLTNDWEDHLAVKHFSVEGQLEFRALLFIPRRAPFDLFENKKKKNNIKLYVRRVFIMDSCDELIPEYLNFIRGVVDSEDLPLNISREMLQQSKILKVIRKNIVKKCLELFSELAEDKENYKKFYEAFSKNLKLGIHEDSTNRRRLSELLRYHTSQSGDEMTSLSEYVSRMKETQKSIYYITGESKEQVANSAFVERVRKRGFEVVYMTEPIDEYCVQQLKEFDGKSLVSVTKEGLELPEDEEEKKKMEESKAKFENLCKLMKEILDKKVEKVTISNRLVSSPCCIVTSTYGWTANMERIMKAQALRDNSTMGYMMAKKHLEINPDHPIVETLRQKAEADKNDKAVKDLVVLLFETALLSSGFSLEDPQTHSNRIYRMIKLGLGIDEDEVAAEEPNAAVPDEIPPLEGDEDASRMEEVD

Structure (SMILES): CC(C)c1cc(C(=O)N2Cc3ccccc3C2)c(O)c2nn[nH]c12
- Kd [1]: ≥ 100 µM
- Kd [2]: ≥ 100 µM
